Consider one compound from patent publication US10463688B2, “Nylon-3 polymers active against Clostridium difficile” (priority 2015, dated 2019).

SMILES strings stand for the structures.

The assay deals with C. difficile vegetative cells (R20291 strain). To be noted: MH broth, 24 h at 37° C., anaerobic.

`CC[C@H](C)[C@H](NC(=O)[C@H](CCCCN)NC(=O)[C@H](CCC(=O)O)NC(=O)[C@H](CCCCN)NC(=O)[C@H](CO)NC(=O)[C@H](CCCCN)NC(=O)[C@H](CCCNC(=N)N)NC(=O)[C@H](Cc1ccccc1)NC(=O)[C@H](Cc1ccccc1)NC(=O)[C@H](CC(=O)O)NC(=O)CNC(=O)[C@H](CC(C)C)NC(=O)[C@@H](N)CC(C)C)C(=O)NCC(=O)N[C@@H](CCCCN)C(=O)N[C@@H](CCC(=O)O)C(=O)N[C@@H](Cc1ccccc1)C(=O)N[C@@H](CCCCN)C(=O)N[C@@H](CCCNC(=N)N)C(=O)N[C@H](C(=O)N[C@H](C(=O)N[C@@H](CCC(N)=O)C(=O)N[C@@H](CCCNC(=N)N)C(=O)N[C@H](C(=O)N[C@@H](CCCCN)C(=O)N[C@@H](CC(=O)O)C(=O)N[C@@H](Cc1ccccc1)C(=O)N[C@@H](CC(C)C)C(=O)N[C@@H](CCCNC(=N)N)C(=O)N[C@@H](CC(N)=O)C(=O)N[C@@H](CC(C)C)C(=O)N[C@H](C(=O)N1CCC[C@H]1C(=O)N[C@@H](CCCNC(=N)N)C(=O)N[C@H](C(=O)N[C@@H](CCC(=O)O)C(=O)N[C@@H](CO)C(=O)O)[C@@H](C)O)C(C)C)[C@@H](C)CC)C(C)C)[C@@H](C)CC` [LL-37]: the “MIC, minimum inhibitory concentration for vegetative cell growth” value is 10 µg/mL.
